Tested on: HCT116 cells
Assay: Clonogenic survival assay, radio/chemosensitization
Assay type: cell-based, human
Protocol: Cells, seeded in 60-mm dishes 24 hours in advance, were treated with PNKP inhibitors for 9-14 consecutive days at nontoxic concentrations. […] Colonies consisting of 50 cells or more were counted using an automated colony counter (Oxford Optronix, Abingdon, UK).

COc1ccccc1C(O)C1C=CC2C(=O)N(Cc3cccc4ccccc34)C(=O)C2N1Nc1ccc([N+](=O)[O-])cc1 (centres unmarked) [Compound A83B4C63, 2-[hydroxy(2-methoxyphenyl)methyl]-6-(naphthalen-1-ylmethyl)-1-[(4-nitrophenyl)amino]2H,4aH,7aH-pyrrolo[3,4-b]pyridine-5,7-dione]
sensitivity of HCT116 cells to radiation and irinotecan (encapsulated inhibitor (micellar formulation), 24 h prior to radiation or irinotecan, 4 μM A12B4C50, 6 μM A83B4C63): significantly increased the sensitivity
sensitization of HCT116 cells to radiation or irinotecan (free inhibitor, 4 μM A12B4C50, 6 μM A83B4C63, 24 h prior): able to sensitize
